Experimental data from patent US4560545A, “Basic aluminum magnesium carbonate” (Anphar S.A., priority 1978, dated 1985).

Experiment: antacid activity in simulated gastric juice (modified Holbert technique, automatic titrator)
Type: physicochemical
Conditions: for Vol. of gastric juice added: added at 0.7 ml/min. until pH fell below 3; for pH of suspension after 1 min.: about 0.125 g powder in 20 ml, 37° C.
Method: Approximately 0.125 g of powder was added to 20 ml of simulated gastric juice (U.S.P.) and stirred vigorously at 37° C. The pH was registered at 1, 5 and 10 minutes and then the automatic burette was started and synthetic gastric juice was added at a rate of 0.7 ml/min. until the pH fell below 3. The time taken and the amount of gastric juice added to reach pH 3 was observed.

[1] = gastric juice SP, without pepsin

hydrotalcite
Vol. of gastric juice added (gastric juice DP, double quantity of pepsin): 12.20 mL
pH of suspension after 1 min. (gastric juice DP, with double quantity of pepsin): 3.16
pH of suspension after 1 min. (gastric juice N, normal U.S.P. simulated gastric juice): 3.42
Vol. of gastric juice added (gastric juice N, normal U.S.P.): 13.55 mL
pH of suspension after 1 min. [1]: 3.52
Vol. of gastric juice added [1]: 13.5 mL
velocity of neutralisation (pH after 1 minute in the optimal zone, pH 3-5): high velocity of neutralisation
